Test results: patent US11390616B2 (BRISTOL-MYERS SQUIBB COMPANY, priority 2015, dated 2022)

Chains of the proteins cited; added tags and fusions are not shown.
UniProt P35414, whole entry: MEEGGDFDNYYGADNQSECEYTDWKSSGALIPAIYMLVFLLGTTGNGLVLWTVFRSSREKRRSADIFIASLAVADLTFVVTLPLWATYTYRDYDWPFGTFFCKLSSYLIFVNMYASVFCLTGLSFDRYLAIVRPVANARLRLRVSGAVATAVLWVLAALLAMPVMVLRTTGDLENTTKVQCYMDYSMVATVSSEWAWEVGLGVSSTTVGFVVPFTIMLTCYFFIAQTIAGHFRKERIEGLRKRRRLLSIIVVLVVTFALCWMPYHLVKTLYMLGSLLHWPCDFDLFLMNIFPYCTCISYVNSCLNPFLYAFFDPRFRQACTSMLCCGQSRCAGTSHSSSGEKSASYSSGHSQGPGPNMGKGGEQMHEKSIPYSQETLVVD

Target: APJ receptor (Homo sapiens, UniProt P35414)
Experiment: Intracellular cAMP accumulation assay (APJ hcAMP, HTRF)
Settings: read-out: APJ cAMP Potency range; HEK293 cells stably expressing human APJ receptor; inhibition of forskolin-mediated cAMP production

- EC50: 0.01 to 10 nM
Structure (SMILES): CCCCc1nc(O)c(Cc2ccc(-c3ncon3)cc2)c(=O)n1-c1c(OC)cccc1OC
